Assay results reported in patent US10023575B2, “Cyclic ether derivatives of pyrazolo[1,5-a]pyrimidine-3-carboxyamide” (Boehringer Ingelheim International GmbH, priority 2015, dated 2018).

The chains behind the UniProt entries cited, without tags or fusion partners.
UniProt O00408, whole entry: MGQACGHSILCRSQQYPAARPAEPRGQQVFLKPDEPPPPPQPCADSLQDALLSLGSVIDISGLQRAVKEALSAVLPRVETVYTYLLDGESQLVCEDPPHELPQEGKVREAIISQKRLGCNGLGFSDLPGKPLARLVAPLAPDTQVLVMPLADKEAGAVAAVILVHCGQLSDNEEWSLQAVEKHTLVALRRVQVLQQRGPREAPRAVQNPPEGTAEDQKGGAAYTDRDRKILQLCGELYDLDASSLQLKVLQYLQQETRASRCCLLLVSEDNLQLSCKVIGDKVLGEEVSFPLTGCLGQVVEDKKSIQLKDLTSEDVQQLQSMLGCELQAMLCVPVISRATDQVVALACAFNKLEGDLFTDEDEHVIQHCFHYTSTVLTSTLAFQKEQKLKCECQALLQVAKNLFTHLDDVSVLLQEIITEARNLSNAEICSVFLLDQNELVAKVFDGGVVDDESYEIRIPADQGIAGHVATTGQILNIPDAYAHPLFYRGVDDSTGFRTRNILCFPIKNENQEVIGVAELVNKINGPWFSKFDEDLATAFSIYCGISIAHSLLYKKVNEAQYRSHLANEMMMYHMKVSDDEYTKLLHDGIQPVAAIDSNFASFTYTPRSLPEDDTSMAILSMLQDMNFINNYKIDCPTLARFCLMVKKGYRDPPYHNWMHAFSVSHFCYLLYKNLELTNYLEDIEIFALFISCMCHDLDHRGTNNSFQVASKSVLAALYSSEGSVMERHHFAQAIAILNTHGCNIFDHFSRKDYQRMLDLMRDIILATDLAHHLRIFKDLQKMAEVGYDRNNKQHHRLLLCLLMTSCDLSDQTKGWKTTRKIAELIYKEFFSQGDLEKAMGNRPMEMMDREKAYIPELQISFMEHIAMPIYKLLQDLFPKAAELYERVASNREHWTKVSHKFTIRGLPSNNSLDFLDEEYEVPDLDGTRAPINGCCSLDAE
UniProt Q9Y233, whole entry: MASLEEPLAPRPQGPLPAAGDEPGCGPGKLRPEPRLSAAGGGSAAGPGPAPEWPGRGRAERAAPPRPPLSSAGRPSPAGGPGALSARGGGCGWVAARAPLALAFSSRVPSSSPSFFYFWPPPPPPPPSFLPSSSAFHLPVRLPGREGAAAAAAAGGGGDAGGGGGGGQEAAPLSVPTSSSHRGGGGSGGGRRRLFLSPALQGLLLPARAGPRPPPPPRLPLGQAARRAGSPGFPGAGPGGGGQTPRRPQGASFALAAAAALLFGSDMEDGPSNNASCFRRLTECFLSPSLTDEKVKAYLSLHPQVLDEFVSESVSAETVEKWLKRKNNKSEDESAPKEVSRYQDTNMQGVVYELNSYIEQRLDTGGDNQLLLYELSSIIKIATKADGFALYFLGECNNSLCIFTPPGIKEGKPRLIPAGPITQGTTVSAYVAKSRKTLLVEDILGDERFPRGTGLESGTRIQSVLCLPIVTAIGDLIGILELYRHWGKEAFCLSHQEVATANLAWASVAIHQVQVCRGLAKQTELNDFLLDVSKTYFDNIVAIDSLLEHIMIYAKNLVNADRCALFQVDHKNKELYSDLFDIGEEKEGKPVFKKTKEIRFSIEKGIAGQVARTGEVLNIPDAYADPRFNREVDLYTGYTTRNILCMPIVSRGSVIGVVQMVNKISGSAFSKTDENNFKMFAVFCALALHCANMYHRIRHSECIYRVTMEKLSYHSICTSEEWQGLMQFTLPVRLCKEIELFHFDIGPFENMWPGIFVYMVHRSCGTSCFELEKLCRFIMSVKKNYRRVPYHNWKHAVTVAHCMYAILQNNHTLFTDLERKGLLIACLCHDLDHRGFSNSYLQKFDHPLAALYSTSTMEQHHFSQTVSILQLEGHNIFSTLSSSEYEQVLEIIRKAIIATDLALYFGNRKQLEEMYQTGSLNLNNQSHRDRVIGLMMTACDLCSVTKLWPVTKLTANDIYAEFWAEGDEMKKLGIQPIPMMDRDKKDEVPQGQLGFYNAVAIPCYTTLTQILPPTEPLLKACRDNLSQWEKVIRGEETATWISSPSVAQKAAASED

Columns and labels:
[1] = molecular target: PDE 2A (Homo sapiens (Human), UniProt O00408); assay: Phosphodiesterase (PDE) 2A assay with fluorescent substrate (IMAP, fluorescence polarization); type: biochemical; conditions: read-out: PDE2 IC50, labeled cAMP 30 nM
[2] = molecular target: PDE10 (Homo sapiens (Human), UniProt Q9Y233); assay: Phosphodiesterase (PDE) 10 assay with fluorescent substrate (IMAP, fluorescence polarization); type: biochemical; conditions: read-out: PDE10 IC50, labeled cAMP 30 nM

## COc1cccc(C2(NC(=O)c3cnn4cc(C5CC5)cnc34)CCOCC2)c1F
[1]
  IC50: 0.08 µM
[2]
  IC50: 9.82 µM
